The values that follow come from ChEMBL document CHEMBL1138266, “Design, synthesis, and biological evaluation of a 1alpha,25-dihydroxy-19-norvitamin D3 analogue with a frozen A-ring conformation” (J Med Chem, 2007).

For assay [1], the target named is T1, Vitamin D3 receptor (Rattus norvegicus) (UniProt P13053).
T1 sequence (whole entry): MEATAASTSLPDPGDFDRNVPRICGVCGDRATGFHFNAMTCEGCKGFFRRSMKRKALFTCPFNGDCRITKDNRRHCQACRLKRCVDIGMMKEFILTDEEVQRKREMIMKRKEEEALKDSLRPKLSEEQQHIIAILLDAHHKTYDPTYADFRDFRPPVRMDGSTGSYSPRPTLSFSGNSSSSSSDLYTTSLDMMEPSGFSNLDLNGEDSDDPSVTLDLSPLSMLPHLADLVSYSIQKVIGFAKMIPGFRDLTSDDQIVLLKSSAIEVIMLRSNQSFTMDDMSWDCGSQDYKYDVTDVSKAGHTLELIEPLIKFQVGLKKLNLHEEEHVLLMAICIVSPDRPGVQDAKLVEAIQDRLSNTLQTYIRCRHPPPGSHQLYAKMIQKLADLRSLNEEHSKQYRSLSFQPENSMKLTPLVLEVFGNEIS
Description: Ratio of ED50 for drug to 1-alpha,25-dihydroxyvitamin for rat recombinant VDR.

For assay [2], the target named is T1, Vitamin D3 receptor (Rattus norvegicus). Description: Ratio of ED50 for drug to 1-alpha,25-dihydroxyvitamin for VDR in rat osteosarcoma cells assessed as 24-hydroxylase transcription. The class given is cell-based.

Bounds are passed on as bounds.

As for `C[C@H](CCCC(C)(C)O)C1CC[C@H]2/C(=C/C=C3\C[C@@H](O)C4=CCCO[C@@H]4C3)CCC[C@]12C` (stereo partly drawn), the Ratio ED50 in assay [1] is above 1e+06.
For `C[C@H](CCCC(C)(C)O)C1CC[C@H]2/C(=C/C=C3/C[C@@H](O)C4=CCCO[C@@H]4C3)CCC[C@]12C` (stereo partly drawn), the Ratio ED50 was 1 in assay [2] and 560 in assay [1].
